Assays:
[1] = target: T1, Tryptophan 2,3-dioxygenase (Homo sapiens, UniProt P48775); test: Inhibition of liver TDO
[2] = target: T1, Tryptophan 2,3-dioxygenase; test: Inhibition of human purified TDO assessed as formation of kynurenine from N-formylkynurenine preincubated for 10 mins measured after 5 to 20 mins by discontinuous colorimetric method
In short: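 Purified recombinant hTDO (E. coli), 1.3 μM stock, added to 50 mM Tris pH 8.0 with 20 mM ascorbate, catalase, 5 μM hemin, 10 μM methylene blue, 100 μM L-Trp and inhibitor at 0–100 μM in 5% DMSO final. Mix pre-incubated 10 min at 37 °C before enzyme. Stopped at 5–20 min with TCA, then 65 °C for 15 min. Kynurenine read at 480 nm with Ehrlich's reagent. Duplicates averaged.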

By UniProt entry, the sequences of proteins in these tests, tags left out. Where a name states a change or a piece, a line headed by the entry shows the natural chain unless it says otherwise.
UniProt P48775: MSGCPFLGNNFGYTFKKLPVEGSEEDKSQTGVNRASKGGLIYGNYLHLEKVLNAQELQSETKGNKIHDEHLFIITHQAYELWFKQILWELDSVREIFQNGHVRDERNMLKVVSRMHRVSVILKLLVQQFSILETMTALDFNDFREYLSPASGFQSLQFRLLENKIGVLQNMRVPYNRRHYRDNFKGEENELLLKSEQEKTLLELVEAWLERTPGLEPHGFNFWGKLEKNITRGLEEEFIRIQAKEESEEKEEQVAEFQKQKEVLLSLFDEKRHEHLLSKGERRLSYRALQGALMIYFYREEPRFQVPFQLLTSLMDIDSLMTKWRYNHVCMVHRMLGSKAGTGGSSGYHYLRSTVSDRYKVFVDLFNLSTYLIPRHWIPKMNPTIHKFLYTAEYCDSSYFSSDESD

- Ki [1]: 30 nM
- IC50 [2]: 1300 nM
Compound: Fc1ccc2c(/C=C/c3cccnc3)c[nH]c2c1

From ChEMBL document CHEMBL2040834, “Synthesis, crystal structures and electronic properties of isomers of chloro-pyridinylvinyl-1H-indoles” (Eur J Med Chem, 2012)
